Among the data in ChEMBL document CHEMBL5380856, “Development of Orally Bioavailable Amidobenzimidazole Analogues Targeting Stimulator of Interferon Gene (STING) Receptor” (J Med Chem, 2023) are inhibition values, retold here.

The source made the active and inactive calls. The calls are words filed in the database; no cut-off is given here.

The subject of the test is CT26. The following applies: Mus musculus, dose 0.2 mg/kg, route it(Intratumoral), time 8.0 day.

As to `CCn1nc(C)cc1C(=O)Nc1nc2cc(C(N)=O)cc(OC)c2n1CCCNc1ncc(-c2ccccc2C(F)(F)F)o1`, the inhibition entry is “Active”.
